Legend:
[1] = molecular target: recombinant full-length mammalian Tpr (6xHis-Tpr) (not stated (mammalian)) (UniProt P12270); assay: ELISA; solid phase binding assay: Maxisorp microtiter plates coated with 25 ng of Tpr or C-Tpr; increasing concentrations of the soluble protein; bound protein detected with primary antibodies and horseradish peroxidase-conjugated secondary antibodies (TMB); apparent Kd from B = Bmax x Y/(Kd + Y); CRM1, NES and RanGTP at equimolar concentrations
His-S-tag-importin β = His-S-tag-importin β (UniProt Q14974); assay: ELISA; solid phase assay: 100 nM importin β on Tpr adsorbed to microtiter wells, without or with 0.1, 0.2, 0.5 and 1 μM RanGMP-PNP or RanGDPβS

| Substance | Kd [1] [nM] | percent of importin β binding to Tpr left with a 10 fold molar excess of RanGMP-PNP (His-S-tag-importin β) [%] |
| --- | --- | --- |
| CRM1+NES+RanGTP (trimeric CRM1 export complex) (from UniProt O14980 1-1071; P62826 1-216) (complex; other documents disagree on this pair) | 83 | – |
| RanGMP-PNP (from UniProt P62826 1-216) (natural protein; other documents disagree on this pair) | – | 42 |
